Reference: article PMC12575831, “Pseudouridylation of 7SK by PUS7 regulates Pol II transcription elongation” (Nature Communications, 2025)

Sequences of proteins named here, by UniProt entry; tags and fusion partners are left off.
UniProt O94992, whole entry: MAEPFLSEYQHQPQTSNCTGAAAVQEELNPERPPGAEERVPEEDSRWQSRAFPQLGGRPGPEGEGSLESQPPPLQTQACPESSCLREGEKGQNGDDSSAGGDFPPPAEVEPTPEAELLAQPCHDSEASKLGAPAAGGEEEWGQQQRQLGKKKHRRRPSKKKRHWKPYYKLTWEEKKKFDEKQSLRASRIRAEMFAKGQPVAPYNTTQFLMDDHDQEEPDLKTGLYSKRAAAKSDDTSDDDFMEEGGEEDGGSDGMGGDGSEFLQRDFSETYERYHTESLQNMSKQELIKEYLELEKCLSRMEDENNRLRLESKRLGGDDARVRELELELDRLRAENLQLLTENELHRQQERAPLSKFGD

Legend:
Experiment in all cases: co-IP; endogenous proteins in HCT116 lysate (150 mM NaCl, 50 mM Tris-HCl pH 7.5, 1% NP-40, protease inhibitor, SUPERase-In); antibody against LARP7, HEXIM1 or MEPCE 2 h at 4 °C, Protein A beads, western blot; cells treated with control siRNA or PUS7 siRNA (PUS7 KD) before lysis
Details in all cases: partners not purified
LARP7 = biological target: T1, LARP7 (human (endogenous in HCT116), UniProt Q4G0J3 1-582)
T1 construct: LARP7, human, endogenous protein of the 7SK snRNP, precipitated with a rabbit anti-LARP7 antibody; source: endogenous, HCT116 lysate
T1 sequence (looked up): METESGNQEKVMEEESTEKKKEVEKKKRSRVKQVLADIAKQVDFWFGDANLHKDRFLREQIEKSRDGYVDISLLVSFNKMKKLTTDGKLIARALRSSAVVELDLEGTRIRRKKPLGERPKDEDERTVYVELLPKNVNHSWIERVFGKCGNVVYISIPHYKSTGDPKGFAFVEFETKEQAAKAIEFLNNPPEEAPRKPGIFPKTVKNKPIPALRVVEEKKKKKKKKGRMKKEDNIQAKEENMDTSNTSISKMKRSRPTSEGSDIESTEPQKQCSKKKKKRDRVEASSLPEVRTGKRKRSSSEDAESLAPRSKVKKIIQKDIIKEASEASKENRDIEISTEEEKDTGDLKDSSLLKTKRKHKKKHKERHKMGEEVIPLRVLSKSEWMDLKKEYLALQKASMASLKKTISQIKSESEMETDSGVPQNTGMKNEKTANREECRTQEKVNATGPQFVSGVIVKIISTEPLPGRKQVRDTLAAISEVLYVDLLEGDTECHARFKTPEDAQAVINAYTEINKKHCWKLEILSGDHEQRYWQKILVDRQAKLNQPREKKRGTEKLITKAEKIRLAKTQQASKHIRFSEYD

HEXIM1 = biological target: T2, HEXIM1 (human (endogenous in HCT116), UniProt O94992)
T2 construct: HEXIM1, human, endogenous protein of the 7SK snRNP, precipitated with a rabbit anti-HEXIM1 antibody; also called HEIMX1; source: endogenous, HCT116 lysate

MEPCE = biological target: T3, MEPCE (human (endogenous in HCT116), UniProt Q7L2J0 1-689)
T3 construct: MEPCE, human, endogenous protein of the 7SK snRNP, precipitated with a rabbit anti-MEPCE antibody; source: endogenous, HCT116 lysate
T3 sequence (looked up): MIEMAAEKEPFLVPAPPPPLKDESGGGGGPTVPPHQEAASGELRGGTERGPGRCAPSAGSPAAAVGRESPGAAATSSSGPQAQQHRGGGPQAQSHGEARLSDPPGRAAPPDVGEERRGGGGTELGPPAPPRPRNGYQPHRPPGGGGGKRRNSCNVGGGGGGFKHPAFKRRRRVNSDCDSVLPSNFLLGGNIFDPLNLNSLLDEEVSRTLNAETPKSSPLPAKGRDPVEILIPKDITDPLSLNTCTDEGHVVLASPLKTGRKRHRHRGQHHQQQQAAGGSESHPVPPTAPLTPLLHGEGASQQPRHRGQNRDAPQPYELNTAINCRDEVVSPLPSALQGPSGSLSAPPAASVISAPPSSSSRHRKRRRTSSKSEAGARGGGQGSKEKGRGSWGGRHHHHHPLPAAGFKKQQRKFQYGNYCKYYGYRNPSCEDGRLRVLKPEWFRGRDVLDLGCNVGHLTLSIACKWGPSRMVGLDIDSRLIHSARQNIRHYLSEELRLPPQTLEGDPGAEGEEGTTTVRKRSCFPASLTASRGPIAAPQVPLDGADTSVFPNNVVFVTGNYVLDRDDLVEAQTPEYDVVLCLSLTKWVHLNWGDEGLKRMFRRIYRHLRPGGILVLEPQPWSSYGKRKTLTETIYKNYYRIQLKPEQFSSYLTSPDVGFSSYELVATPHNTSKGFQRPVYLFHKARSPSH

B1: Cyclin T1 (natural protein, human (endogenous in HCT116), UniProt O60563 1-726, looked up)
chain: MEGERKNNNKRWYFTREQLENSPSRRFGVDPDKELSYRQQAANLLQDMGQRLNVSQLTINTAIVYMHRFYMIQSFTQFPGNSVAPAALFLAAKVEEQPKKLEHVIKVAHTCLHPQESLPDTRSEAYLQQVQDLVILESIILQTLGFELTIDHPHTHVVKCTQLVRASKDLAQTSYFMATNSLHLTTFSLQYTPPVVACVCIHLACKWSNWEIPVSTDGKHWWEYVDATVTLELLDELTHEFLQILEKTPNRLKRIWNWRACEAAKKTKADDRGTDEKTSEQTILNMISQSSSDTTIAGLMSMSTSTTSAVPSLPVSEESSSNLTSVEMLPGKRWLSSQPSFKLEPTQGHRTSENLALTGVDHSLPQDGSNAFISQKQNSKSVPSAKVSLKEYRAKHAEELAAQKRQLENMEANVKSQYAYAAQNLLSHHDSHSSVILKMPIEGSENPERPFLEKADKTALKMRIPVAGGDKAASSKPEEIKMRIKVHAAADKHNSVEDSVTKSREHKEKHKTHPSNHHHHHNHHSHKHSHSQLPVGTGNKRPGDPKHSSQTSNLAHKTYSLSSSFSSSSSTRKRGPSEETGGAVFDHPAKIAKSTKSSSLNFSFPSLPTMGQMPGHSSDTSGLSFSQPSCKTRVPHSKLDKGPTGANGHNTTQTIDYQDTVNMLHSLLSAQGVQPTQPTAFEFVRPYSDYLNPRSGGISSRSGNTDKPRPPPLPSEPPPPLPPLPK
notes: Cyclin T1, human, endogenous, component of P-TEFb, detected by western blot; Component of the P-TEFb complex; results are printed for CDK9 and Cyclin T1 one by one; source: endogenous, HCT116 lysate
Q: B1 was tested. Which “percent reduction of relative binding in PUS7 KD cells against control cells” value (shortened to “percent reduction of relative binding”) (LARP7) did it give?
A: 67%

Q: What about the “percent reduction of relative binding” value (HEXIM1) of the same binder?
A: 39%

Q: What about the “percent reduction of relative binding” value (MEPCE) of the same binder?
A: 71%
